Compound activity (PubChem)
miR-21 reporter: raises the signal of a miR-21 reporter | HeLa miR-21 FLuc reporter, luciferase, 48 h | Potency, µM (highest dose often 38.3 µM), for inactives: at the highest dose reporter change, positive = more light | 340,000 tested, under 10 active | AID 2288; active = well fitted rising curve with a large enough effect; inconclusive = small, poorly fitted or top-dose-only effect; inactive = no such curve, though single readings can be large or run the other way;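 also: % of control where 0% means no effect; miR-21 action dims this reporter so a rising signal means less miR-21 action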
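Using DMEM plus 10% FBS, HeLa miR-21-FLuc cells are incubated with test compounds (final up to about 40uM) for 48 hours; firefly luciferase signal is then imaged following reagent-mediated lysis.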
ALDH1A1 block: ALDH1A1 (human) enzyme inhibition | P00352 | Purified ALDH1A1, NADH fluorescence, propionaldehyde substrate | Potency, µM (top dose mostly 75.3 µM), inactives show top-dose activity, negative = inhibition, hits mostly inhibitors | 7.3% of 220,000 active | AID 1030; active means well fitted inhibition curve with a large enough effect, not every such curve was filed as active; inconclusive means small, poorly fitted or top-dose-only effect, or another doubt; inactive means no such curve, though single readings can be large or run the other way;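 further: potency means the concentration at half of the fitted maximal effect; plate controls were no enzyme wells and a reference inhibitor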
Lamin A splicing: changes lamin A minigene splicing in HeLa cells; HeLa LMNA splicing GFP/RFP minigene ratio, 48 h; Potency, µM (doses to about 46.1 µM), without a hit: at the highest dose ratio change, negative = inhibition, most hits filed as inhibitors; 0.01% of 200,000 active; AID 1487; active means well fitted inhibition curve with a large enough effect in the signal ratio, with a control signal flat, not every such curve was filed as active; inconclusive means small, poorly fitted or top-dose-only effect, or effect the other way, or a change in a side signal; the % refers to the signal ratio; further: potency means the concentration at half of the fitted maximal effect; on the % scale 0 is the no-effect control and ±100 the full control effect
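Read-out is the ratio of GFP to DsRed2 object intensity, acquired by 488 nm laser-scanning cytometry on HeLa lamin A-EGFP minigene reporter cells. Compound incubation 48 hrs at 37 °C in Opti-MEM with 2% FBS; DMSO 0.5% final.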
JMJD2E inh: blocks human JMJD2E demethylase activity; JMJD2E catalytic domain, FDH-coupled NADH fluorescence (FDH is formaldehyde dehydrogenase); Potency, µM (doses to about 57.1 µM), inactives show at the highest dose activity change, negative = inhibition, usual class: inhibitors; 1.6% of 230,000 active; B2RXH2; active means well fitted inhibition curve with a large enough effect, not every such curve was filed as active; inconclusive means small, poorly fitted or top-dose-only effect, or another doubt; inactive means no such curve, though single readings can be large or run the other way;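 further: potency means the concentration at half of the fitted maximal effect; 0% = wells with enzyme and -100% = buffer wells without enzyme; nearly all actives have a fitted effect of over 50% in size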
G9a inh: G9a (human) methyltransferase inhibition; Q96KQ7; G9a H3K9 monomethylation, AlphaScreen, 2 h; Potency, µM (series often up to 102 µM), inactives show at the top dose activity, negative = inhibition, hits mostly inhibitors; 8.8% of 350,000 active; AID 504332; further: potency means the concentration at half of the fitted maximal effect; on the % scale 0 is the no-effect control and ±100 the full control effect; nearly all actives have a fitted effect of over 75% in size
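G9a (20 nM) was preincubated 15 min with compound, then reacted 2 h at room temperature with 500 nM biotin-H3K9 peptide and 20 µM SAM. Monomethyl-H3K9 detected by AlphaScreen using anti-H3K9me1 antibody.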
Sfp inh: inhibitors of Bacillus subtilis Sfp phosphopantetheinyl transferase | Q9F4F7 | Biochemical Sfp PPTase activity, qHTS | Potency, µM, inactives show max response, negative = inhibition, most hits filed as inhibitors | 310,000 tested, 3.5% active | AID 1490; active = well fitted inhibition curve with a large enough effect; inconclusive = small, poorly fitted or top-dose-only effect, or another doubt; inactive = no such curve, though single readings can be large or run the other way;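 note: the enzyme is Sfp with the accession as filed and its product quenches rhodamine fluorescence; potency is the fitted concentration of half-maximal effect; 0% = enzyme reaction without inhibitor and -100% = no enzyme wells; top concentration of the series not given in the record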
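Fluorescence-quenching assay: 15 nM Sfp-PPTase preincubated 15 min at room temperature with compound, then 5 uM rhodamine-CoA and 12.5 uM BHQ-2-labelled YbbR peptide added. Fluorescence (ex 525/em 598 nm) read at start and after 30 min; difference gives rate.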
Numbers without * were called inactive; ? = inconclusive; / = no result given; [ ] = dose if it differs, or a comment. A selection: hits, their analogues and other compounds. The true share with any hit is near 13%. Unless noted, the call rests on the fitted dose curve; in most records, active means well fitted curve in the direction sought with a large enough effect; inconclusive means small, poorly fitted or top-dose-only effect, or another doubt; inactive means no such curve, though single readings can be large; an effect the other way counts as inactive or inconclusive.

nr | miR-21 reporter | ALDH1A1 block | Lamin A splicing | JMJD2E inh | G9a inh | Sfp inh | Structure
1 | / | ? | 2% | / | -2%[0.501 µM] | 20% | N#CCCn1c(=O)c(-c2ccc(Cl)cc2)nc2cnc(N3CCOCC3)nc21
2 | -2% | / | / | / | 2%[59 µM] | / | CCN(C(=O)c1cc2c(=O)oc3ccc(C)cc3c2s1)c1ccccc1F
3 | / | / | / | / | -23%[12.7 µM] | / | Cc1cccc(-c2ccc3ncnc(N(C)Cc4ccco4)c3c2)c1
4 | / | ? | ? | ? | -4%[12.7 µM] | 45µM* | CN(Cc1ccco1)c1ncnc2ccc(-c3ccc4c(c3)OCO4)cc12
5 | 3% | / | / | ? | -4% | 17% | C=CC[n+]1ccn(-c2nc3ccccc3nc2[N-]S(=O)(=O)c2cccs2)c1
6 | 10% | ? | ? | ? | ? | 35µM* | O=c1c2c(-c3ccccc3)csc2nc2c3ccccc3c(NCCN3CCOCC3)nn12
7 | 18% | ? | ? | ? | 9% | -10% | O=c1c2ccccc2nc2c3ccccc3c(NCCN3CCOCC3)nn12
8 | -4% | 10µM* | -8% | 5% | ? | 4% | Cc1nonc1NC(=O)CSc1nnc(-c2ccoc2C)n1-c1cccc(Cl)c1
9 | -9% | ? | 9% | -19% | 32µM* | ? | CCC1(c2ccccc2)NC(=S)N(c2cccc(C)c2C)N1 (stereo unspecified)
10 | 5% | / | / | / | ? | ? | Cc1cccc(-n2c(-c3ccccc3)c[nH]c2=S)c1C
11 | -2% | 0.2µM* | -12% | 1% | -2%[59 µM] | ? | CCN(CC)S(=O)(=O)c1ccc(NC2c3ccccc3C(=O)N2CCN2CCOCC2)cc1 (stereo unspecified)
12 | -7% | 1µM* | 2% | -15% | -3% | -3% | Cc1ccc(NC2c3ccccc3C(=O)N2CCN2CCOCC2)cc1 (stereo unspecified)
13 | -8% | / | / | 5% | 7.9µM* | -10% | C=CCn1c(-c2ccc3ncccc3c2)n[nH]c1=S
14 | -6% | ? | 1% | -16% | ? | -16% | CCn1c(-c2cccc(Br)c2)n[nH]c1=S
15 | -8% | 11% | -7% | 2% | 10µM* | 16% | CCn1c(-c2ccc3ncccc3c2)n[nH]c1=S
16 | -2% | -5% | ? | -5% | 4µM* | 4% | CCn1c(-c2ccc([N+](=O)[O-])cc2)n[nH]c1=S
17 | -1% | / | / | / | 8% | 15% | C=CCN(C(=O)CCC(=O)Nc1cc(C)on1)C(C(=O)NC(C)(C)C)c1ccc(OC)cc1 (stereo unspecified)
18 | 0% | / | / | / | -2%[0.501 µM] | 16% | Cc1cc(S(=O)(=O)Nc2cccc([N+](=O)[O-])c2)c(C)s1
19 | 12% | / | / | / | 1.1µM* | ? | O=[N+]([O-])c1cccc(NNS(=O)(=O)c2ccccc2F)c1
20 | -17% | ? | ? | ? | 10µM* | 12% | Cc1ccccc1N/N=C/c1ccc(C#N)cc1
21 | -7% | 1.6µM* | -9% | ? | -35% | -10% | Nc1cc(Cl)ccc1Oc1ccc(Cl)cc1
22 | -3% | 5% | 2% | 5% | 43%[12.7 µM] | 18% | Nc1cc(Cl)ccc1Oc1ccccc1
23 | -1% | / | / | / | -43% | 9% | Cc1ccc(C(=O)N2CCCC(Nc3ccc(F)cc3)C2)cc1C (stereo unspecified)
24 | -5% | 25µM* | 2% | ? | 45µM* | 50µM* | CC(=O)N1CCN(c2ccc(NCc3ccc(C)s3)cc2)CC1
25 | -8% | ? | -13% | ? | 6.3µM* | 22µM* | CC(=O)N1CCN(c2ccc(NCc3cccs3)cc2)CC1
26 | 10% | / | -7%[46 µM] | / | 2%[59 µM] | / | Cc1cncn1CCc1nc2c3ccccc3nc(SCC(=O)Nc3ccc(F)cc3)n2n1
27 | ? | 2% | ? | 9% | 14µM* | ? | Cc1cncn1CCc1nc2c3ccccc3nc(SCC(=O)Nc3cccc(Cl)c3)n2n1
28 | -10% | -7% | -13% | -2% | 12%[59 µM] | -5% | Cc1nn(C(=O)CNS(=O)(=O)c2ccccc2)c(C)c1Sc1ccc(Cl)cc1
29 | ? | ? | ? | ? | 19%[59 µM] | 19% | O=C(NCc1ccco1)/C(=C/c1cccc(C(F)(F)F)c1)c1nc2ccccc2[nH]1

Given with tabs: entries from further up.
nr	mol	miR-21 reporter	ALDH1A1 block	Lamin A splicing	JMJD2E inh	G9a inh	Sfp inh
3	Cc1cccc(-c2ccc3ncnc(N(C)Cc4ccco4)c3c2)c1	/	/	/	/	-23%[12.7 µM]	/
4	CN(Cc1ccco1)c1ncnc2ccc(-c3ccc4c(c3)OCO4)cc12	/	?	?	?	-4%[12.7 µM]	45µM*
5	C=CC[n+]1ccn(-c2nc3ccccc3nc2[N-]S(=O)(=O)c2cccs2)c1	3%	/	/	?	-4%	17%
6	O=c1c2c(-c3ccccc3)csc2nc2c3ccccc3c(NCCN3CCOCC3)nn12	10%	?	?	?	?	35µM*
